The values below are quoted from earlier work in paper PMC3385930.

This data set has as its target Adducin 425-461 (Homo sapiens) (UniProt P35612).

Consider Calmodulin (from UniProt P0DP23), for which the Kd was 230 nM.

What is called Kd is the concentration at which binding is half-saturated.
